Where a name gives a salt, the structure may show the parent alone.
System: M173

| Structure (SMILES) | Survival rate at 2 h (%) | Survival rate at 6 h (%) |
| --- | --- | --- |
| O=P([O-])(O)O.[K+] | 89.33 | 78.00 |
| N.N.O=S(=O)(O)O [Ammonium sulfate] | 75.33 | 80.67 |
| COC(=O)Nc1nc2ccccc2[nH]1 [Carbendazim] | 79.33 | 70.00 |
| N#Cc1c(Cl)c(Cl)c(Cl)c(C#N)c1Cl [Chlorothalonil] | 86.71 | 89.24 |
| CN/C(=N/CC1CCOC1)N[N+](=O)[O-] (stereo not shown) [Dinotefuran] | 87.97 | 83.54 |
| O=[N+]([O-])c1cc(C(F)(F)F)c(Cl)c([N+](=O)[O-])c1Nc1ncc(C(F)(F)F)cc1Cl [Fluazinam] | 56.00 | 58.67 |
| CCO[PH](=O)O [Fosetyl-aluminum] | 86.08 | 82.91 |
| CC1(C)[C@H](C(=O)O[C@H](C#N)c2cccc(Oc3ccccc3)c2)[C@@H]1/C=C(\Cl)C(F)(F)F [Gamma-cyhalothrin] | 65.82 | 103.80 |
| COCC(=O)N(c1c(C)cccc1C)[C@H](C)C(=O)OC [Metalaxyl-M] | 103.80 | 97.47 |
| CCCOC(=O)NCCCN(C)C [Propamocarb hydrochloride] | 76.00 | 75.33 |
| O=[N+]([O-])c1c(Cl)c(Cl)c(Cl)c(Cl)c1Cl [Quintozene] | 124.05 | 85.44 |
| CN1COCN(Cc2cnc(Cl)s2)/C1=N\[N+](=O)[O-] [Thiamethoxam] | 103.16 | 111.39 |
| CN(C)C(=S)SSC(=S)N(C)C [Thiram] | 79.11 | 86.08 |
| NC(N)=O [Urea] | 75.33 | 72.67 |

— patent US12648569B2 (priority 2022, dated 2026)
